Patent US11071731B2, “Allosteric modulators of the mu opioid receptor” (Chiromics, LLC, priority 2017, dated 2021)

Protein sequences, listed by entry. Tags and fused reporters are not part of them.
UniProt P35372, whole entry, looked up: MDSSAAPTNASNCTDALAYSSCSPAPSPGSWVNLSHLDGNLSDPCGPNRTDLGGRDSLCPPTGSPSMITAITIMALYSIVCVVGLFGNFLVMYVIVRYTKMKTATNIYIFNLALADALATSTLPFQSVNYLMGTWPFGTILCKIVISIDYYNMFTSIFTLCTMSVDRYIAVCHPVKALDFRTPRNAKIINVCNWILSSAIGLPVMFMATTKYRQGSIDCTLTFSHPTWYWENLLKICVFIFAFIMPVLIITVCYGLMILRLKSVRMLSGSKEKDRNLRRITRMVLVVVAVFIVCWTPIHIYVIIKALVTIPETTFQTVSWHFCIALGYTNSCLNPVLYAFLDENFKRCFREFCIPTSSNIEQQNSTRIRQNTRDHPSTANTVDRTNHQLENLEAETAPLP

Columns and labels:
MOR [1] = target: T1, MOR (Homo sapiens, UniProt P35372); experiment: cAMP (adenylyl cyclase inhibition), allosteric effect on EC20 fentanyl agonism; details: for Max. Response: EC20 Fentanyl agonism of MOR
MOR [2] = target: T1, MOR; experiment: β-arrestin recruitment, allosteric effect on EC20 fentanyl agonism; details: for Max. Response: EC20 Fentanyl agonism of MOR
[3] = read-out: RC50, EC20 Fentanyl agonism of MOR

Compound	Max. Response (MOR [1])	EC50 (MOR [1]; [3])	Max. Response (MOR [2])	EC50 (MOR [2]; [3])
COc1ccc(C2CCCCN2S(=O)(=O)c2ccc(Cl)cc2)cc1Br (single isomer, unassigned)	95	2.01 µM	179	5.79 µM
Fc1ccc(Cl)cc1CN1CCCCC1c1cccc(C(F)(F)F)n1 (stereo not drawn) [compound 2]	0	–	19	–
